From ChEMBL document CHEMBL1132301, “Carbonic anhydrase inhibitors. Synthesis of water-soluble, topically effective, intraocular pressure-lowering aromatic/heterocyclic sulfonamides containing cationic or anionic moieties: is the tail more important than the ring?” (J Med Chem, 1999)

Chains of the proteins cited; added tags and fusions are not shown. Lines headed by an entry give the natural chain unless they say otherwise; changes in a name come on top.
UniProt P00915: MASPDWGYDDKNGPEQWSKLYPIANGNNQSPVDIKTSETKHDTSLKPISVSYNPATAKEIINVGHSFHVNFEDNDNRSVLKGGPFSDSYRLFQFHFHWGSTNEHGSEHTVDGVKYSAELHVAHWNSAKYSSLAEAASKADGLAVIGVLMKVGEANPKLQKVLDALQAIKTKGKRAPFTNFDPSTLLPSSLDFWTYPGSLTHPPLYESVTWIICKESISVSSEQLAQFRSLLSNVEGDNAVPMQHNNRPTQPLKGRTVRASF

Experiments:
[1] = molecular target: T1, Carbonic anhydrase 4 (Bos taurus, UniProt Q95323)
T1 sequence (Q95323 whole entry): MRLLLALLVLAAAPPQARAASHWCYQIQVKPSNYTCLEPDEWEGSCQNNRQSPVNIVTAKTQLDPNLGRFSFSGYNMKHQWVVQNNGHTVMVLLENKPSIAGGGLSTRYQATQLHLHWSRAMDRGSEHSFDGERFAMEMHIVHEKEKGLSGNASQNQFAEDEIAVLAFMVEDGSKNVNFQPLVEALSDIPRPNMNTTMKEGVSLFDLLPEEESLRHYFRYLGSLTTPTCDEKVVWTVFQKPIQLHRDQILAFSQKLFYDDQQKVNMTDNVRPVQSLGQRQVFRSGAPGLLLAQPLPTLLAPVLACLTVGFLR

[2] = molecular target: Carbonic anhydrase 1 (Homo sapiens, UniProt P00915)

Compound: NS(=O)(=O)c1ccc(CNC(=O)c2cccc(C(=O)O)n2)cc1
- pKi [1]: 7.15

Compound: NS(=O)(=O)c1ccc(CCNC(=O)c2cccc(C(=O)O)n2)cc1
- pKi [2]: 6.26

pKi: −log10 of the molar value.
